In ChEMBL document CHEMBL1821585, “Fluorinated cannabinoid CB2 receptor ligands: synthesis and in vitro binding characteristics of 2-oxoquinoline derivatives” (Bioorg Med Chem, 2011):

Species on record: Homo sapiens
Experiment: Selectivity ratio of Ki for human CB1 receptor to Ki for human CB2 receptor

Ratio Ki: > 2000
Structure (SMILES): COc1ccc2cc(C(=O)NCCc3ccc(F)cc3)c(=O)[nH]c2c1OC
